The values below come from PubChem BioAssay AID651800 (The Scripps Research Institute Molecular Screening Center, 2012).

This is a selection; strong and weak results do not stand in their true shares. Some structures show a salt or complex split into parts, the way the source records it. Activity calls are given as the source filed them. No stated cut-off is given here; in the data, active means inhibition above about 19%; inactive means the rest.

For orientation: inhibition means the change of the read-out against control, counted positive when it falls.

The subject of this experiment is T-cell receptor (TCR). As to the kind of experiment: small molecules blocking TCR binding to CD3 – biochemical, fluorescence, TAMRA-labeled TCR probe, primary screen (AID 651800).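 Further: recombinant mutant TCR 2C K166C tagged with TAMRA read by polarization; 0% = receptor in buffer alone and 100% = receptor with positive control.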 The following applies: at 9.4 µM, active compounds read high.
For the molecule `COc1ccc(OP(C)(=O)Nc2cccc(Br)c2)cc1` (centres undefined), the inhibition is inactive: 0.48%. Next, `COc1ccc(NP(C)(=O)Oc2ccccc2OC)cc1` (centres undefined): inactive: 3.88%; `CN(C)CCOC(=O)C(O)(c1ccccc1)C1CCCCC1` (centres undefined): inactive: -1.27%.

Regarding `Cc1cc(-c2cccc3ccccc23)c(C)cn1.O=[N+]([O-])c1cc([N+](=O)[O-])c(O)c([N+](=O)[O-])c1`, the inhibition was inactive: 1.65%. Then `O=[N+]([O-])c1cc([N+](=O)[O-])c(NCC2CCS(=O)(=O)C2)c([N+](=O)[O-])c1` (centres undefined), with inactive: -0.68%; and `O=[N+]([O-])c1ccc(OP2(=O)COCCO2)cc1` (centres undefined), with inactive: 9.56%; and `Cc1c(C(c2ccc3c(c2)OCO3)c2c(C)n(C)n(-c3ccccc3)c2=O)c(=O)n(-c2ccccc2)n1C.O=[N+]([O-])c1cc([N+](=O)[O-])c(O)c([N+](=O)[O-])c1`, with inactive: -2.78%. Then `CP(=O)(Nc1ccc(SC(F)(F)F)cc1)Oc1ccc(F)cc1` (centres undefined), with inactive: 7.52%; and `CCOP(=O)(CC)OCC`, with inactive: -4.27%; and `CCOP(C)(=S)SCC(=O)NC(C)(CC)C(=O)O` (centres undefined), with inactive: 0.03%.

As for `CP(=O)(Nc1ccc2c(c1)OCCO2)Oc1ccccc1` (centres undefined), the inhibition was inactive: -7.26%. As to `O=[N+]([O-])c1cc([N+](=O)[O-])c(C(F)(F)F)c([N+](=O)[O-])c1O`, the inhibition was inactive: -0.01%.

On to `Cc1ccccc1NP(C)(=O)Nc1ccccc1C`, for which the inhibition is inactive: 8.52%. Then `O=[N+]([O-])c1cc([N+](=O)[O-])c(Nc2ccc(Cl)cc2)c([N+](=O)[O-])c1`, with inactive: 8.18%; and `CC(C)c1ccc(OP(C)(=O)Nc2ccc(SC(F)(F)F)cc2)cc1` (centres undefined), with inactive: 13.2%.

Regarding `CP(=O)(Nc1ccccc1F)Oc1ccccc1` (centres undefined), the inhibition is inactive: -5.46%. Next, `O=C(OCCN1CCN(CCOCc2ccccc2)CC1)C(O)(c1ccccc1)c1ccccc1`: inactive: 0.38%; `O=C(OC1CN2CCC1CC2)c1ccc([N+](=O)[O-])cc1` (centres undefined): inactive: -15.5%; `COc1ccc2c(c1O)-c1c(O)c(OC)cc3c1[C@H](C2)[N+](C)(C)CC3.O=[N+]([O-])c1cc([N+](=O)[O-])c([O-])c([N+](=O)[O-])c1[O-]`: inactive: 1.86%.

Regarding `CCN(CC)CCCNc1ccccc1[N+](=O)[O-].O=[N+]([O-])c1cc([N+](=O)[O-])c(O)c([N+](=O)[O-])c1`, the inhibition is inactive: -2.42%. Next, `COc1ccc(OP(C)(=O)Nc2ccc(SC(F)(F)F)cc2)cc1` (centres undefined): inactive: 9.05%; `CCOC(=O)c1ccc(NP(C)(=O)Oc2ccc(F)cc2)cc1` (centres undefined): inactive: -1.27%; `CCN(CC)CCCOC(=O)C(O)(c1ccccc1)C1CCCCC1` (centres undefined): inactive: -6.39%.

For the molecule `Cc1c([N+](=O)[O-])cc([N+](=O)[O-])c(Br)c1[N+](=O)[O-]`, the inhibition was inactive: 7.14%. As to `CCCCCOc1ccc(NP(C)(=O)Oc2ccc(Cl)cc2Cl)cc1` (centres undefined), the inhibition is inactive: -4.68%.

Take `O=[N+]([O-])c1cc([N+](=O)[O-])c(OC2CCCCC2O)c([N+](=O)[O-])c1` (centres undefined): the inhibition is inactive: -5.7%.

With `CP(=O)(Nc1ccccc1)Oc1ccc(F)cc1` (centres undefined), the inhibition was inactive: 4.02%.

Regarding `Cc1cc(C)cc(OP(C)(=O)Nc2cccc(C(F)(F)F)c2)c1` (centres undefined), the inhibition is inactive: -0.2%. Then `O=C1C(O)=C([N+](=O)[O-])C(=O)C(O)=C1[N+](=O)[O-]`, with inactive: 12.5%; and `COc1ccc(OP(C)(=O)Nc2ccccc2Br)cc1` (centres undefined), with inactive: -4.6%; and `COc1ccccc1OP(C)(=O)Nc1ccc(C)c(C)c1` (centres undefined), with inactive: -5.88%. Next, `CP(=O)(OCCOc1ccccc1)OCCOc1ccccc1`: inactive: -7.03%; `CCCCCCCCCCCCCCCC1C[N+](C)(C)CCOP(C)(=O)O1` (centres undefined): inactive: 3.97%.

`CP(=O)(Nc1ccc(Cl)cc1Cl)Oc1ccccc1` (centres undefined): the inhibition was inactive: -4.14%. Next, `COc1ccccc1OP(C)(=O)Nc1ccc(Br)cc1` (centres undefined): inactive: 5.29%; `CN(C)CCOC(=O)C(O)(c1ccccc1)C1CCCC1` (centres undefined): inactive: 5.67%; `COc1ccc(OP(C)(=O)Nc2ccccn2)cc1` (centres undefined): inactive: -3.24%. Then `O=[N+]([O-])c1cc([N+](=O)[O-])c(Nc2ccccn2)c([N+](=O)[O-])c1`, with inactive: 5.51%. Next, `Cc1c(NP(C)(=O)Oc2ccc(C(C)C)cc2)c(=O)n(-c2ccccc2)n1C` (centres undefined): inactive: -1.25%; `CCc1ccc(OP(C)(=O)O)cc1`: inactive: -4.75%.

In the case of `COc1ccccc1OP(C)(=O)Nc1ccc(C)cc1C` (centres undefined), the inhibition was inactive: -0.91%. Consider `CP(=O)(Nc1ccccn1)Oc1ccccc1` (centres undefined), for which the inhibition is inactive: 2.22%. Consider `COc1ccc(OP(C)(=O)Nc2ccc(Br)cc2)cc1` (centres undefined), for which the inhibition is inactive: 2.49%. Then `CCN(CC)CC(O)COC(=O)C(O)(c1ccccc1)C1CCCCC1` (centres undefined), with inactive: 4.31%; and `CCc1ccc(OP(C)(=O)Nc2cccnc2)cc1` (centres undefined), with inactive: -4.37%; and `CP(=O)(Oc1ccccc1)N1CCOC1=O` (centres undefined), with inactive: 5.61%. As to `O=C(OCCCN1CCCC1)C(O)(c1ccccc1)C1CCCCC1` (centres undefined), the inhibition was inactive: -5.71%.

Regarding `COc1ccccc1OP(C)(=O)Nc1c(C)n(C)n(-c2ccccc2)c1=O` (centres undefined), the inhibition was inactive: -2.3%. Then `CP(=O)(Nc1ccc(Cl)cc1)Oc1ccc(F)cc1` (centres undefined), with inactive: -2.54%. Regarding `CC(C)(C)c1ccc(OP(C)(=O)O)cc1`, the inhibition is inactive: 1.21%. `COc1ccccc1OP(C)(=O)Nc1ccccc1Br` (centres undefined): the inhibition was inactive: 2.08%.

With `CN(C)C(=O)c1c([N+](=O)[O-])cc([N+](=O)[O-])cc1[N+](=O)[O-]`, the inhibition was inactive: 2.4%. As to `Nc1ccc2c(ccc3cccnc32)n1.O=[N+]([O-])c1cc([N+](=O)[O-])c(O)c([N+](=O)[O-])c1`, the inhibition is inactive: 1.87%. Next, `CP(=O)(OC12CC3CC(CC(C3)C1)C2)OC12CC3CC(CC(C3)C1)C2`: inactive: -2.79%; `CCOC(=O)c1ccc(NP(C)(=O)Oc2ccc(Cl)cc2)cc1` (centres undefined): inactive: 0.41%; `CP(=S)(Nn1cnnc1)Oc1ccccc1` (centres undefined): inactive: 6.28%. Next, `COc1ccccc1OP(C)(=O)Nc1ccccc1` (centres undefined): inactive: -3.59%. Next, `CP(=O)(Nc1ccccc1Br)Oc1ccccc1` (centres undefined): inactive: -2.79%. On to `CP(=O)(Oc1ccccc1)OC(c1ccccc1)C(F)(F)F` (centres undefined), for which the inhibition is inactive: 3.51%. Then `Cc1cccc(C)c1OP(C)(=O)Nc1ccc(SC(F)(F)F)cc1` (centres undefined), with inactive: -1.48%. Next, `CP(=O)(Nc1ccc(SC(F)(F)F)cc1)Oc1ccc(Cl)cc1` (centres undefined): inactive: -4.83%; `Cc1cc(C)cc(OP(C)(=O)Nc2ccc(SC(F)(F)F)cc2)c1` (centres undefined): inactive: 2.52%.

Regarding `CCc1ccc(OP(C)(=O)N2CCN(c3ccc([N+](=O)[O-])cc3)CC2)cc1` (centres undefined), the inhibition was inactive: -5.4%. As to `CP(=O)(NC(=O)Nc1ccccc1)Oc1ccccc1` (centres undefined), the inhibition is inactive: 3.12%. Next, `CCOP(C)(=S)SCC(=O)NC(C)C(=O)O` (centres undefined): inactive: 1.24%. `CCOC(=O)c1ccc(NP(C)(=O)Oc2ccc(OC)cc2)cc1` (centres undefined): the inhibition is inactive: 5.9%.

Take `O=[N+]([O-])c1cc([N+](=O)[O-])c(O)c([N+](=O)[O-])c1.c1ccc(Oc2ccncc2)cc1`: the inhibition was inactive: -8.57%.

As to `CP(=O)(Nc1ccccn1)Oc1ccc(Cl)cc1` (centres undefined), the inhibition is inactive: 0.49%. Regarding `CCN(CC)CCCOC(=O)C(O)(c1ccccc1)c1ccccc1`, the inhibition is inactive: -1.89%. Next, `COc1ccccc1-c1ccccn1.O=[N+]([O-])c1cc([N+](=O)[O-])c(O)c([N+](=O)[O-])c1`: inactive: -0.99%. Then `O=[N+]([O-])c1cc([N+](=O)[O-])c(Nc2cccnc2)c([N+](=O)[O-])c1`, with inactive: 1.43%; and `Cc1cccc(C)c1OP(C)(N)=O` (centres undefined), with inactive: -1.68%. Next, `CC(C)(C)c1ccc(OP(C)(=O)Nc2ccc(SC(F)(F)F)cc2)cc1` (centres undefined): inactive: -0.02%. `O=[N+]([O-])c1ccc2c(c1)C=Nc1ccccc1O2`: the inhibition was inactive: -1.04%. In the case of `CCOC(=O)c1ccc(NP(C)(=O)Oc2ccccc2)cc1` (centres undefined), the inhibition is inactive: -11.2%. Then `Cc1ccc(NP(C)(=O)Oc2ccccc2)c(C)c1` (centres undefined), with inactive: -3.39%. For the molecule `COc1ccccc1OP(C)(=O)Nc1ccc(C)cc1` (centres undefined), the inhibition is inactive: -2.3%. With `COc1ccc(OP(C)(=O)Nc2cccc(F)c2)cc1` (centres undefined), the inhibition is inactive: 2.04%.

In the case of `COc1ccccc1OP(C)(=O)Nc1cc(Cl)ccc1C` (centres undefined), the inhibition is inactive: 7.29%. Next, `Cc1cc(C)cc(OP(C)(N)=O)c1` (centres undefined): inactive: -3.66%; `O=C(O)c1cccc(Nc2c([N+](=O)[O-])cc([N+](=O)[O-])cc2[N+](=O)[O-])c1`: inactive: 8.34%; `CC1=NCCc2c1[nH]c1ccccc21.O=[N+]([O-])c1cc([N+](=O)[O-])c(O)c([N+](=O)[O-])c1`: inactive: -9.09%. For the molecule `COc1ccccc1OP(C)(=O)Nc1cccc(Br)c1` (centres undefined), the inhibition is inactive: -13%. Turning to `Cc1cc(C)cc(OP(C)(=O)Nc2ccc(C)cc2C)c1` (centres undefined), the inhibition is inactive: 1.05%.

Take `CCOC(=O)c1ccc(NP(C)(=O)Oc2cc(C)cc(C)c2)cc1` (centres undefined): the inhibition is inactive: -4.95%.

For `CP(=O)(Nc1cccc(Br)c1)Oc1ccccc1` (centres undefined), the inhibition is inactive: 4.09%.

`Cc1cc(C)cc(OP(C)(=O)Nc2ccccn2)c1` (centres undefined): the inhibition was inactive: -5.59%. As for `Cc1ccc(C)c(NP(C)(=O)Oc2ccccc2)c1` (centres undefined), the inhibition is inactive: 0.65%.

On to `O=[N+]([O-])c1cc([N+](=O)[O-])c(-n2nnc3ccccc32)c([N+](=O)[O-])c1`, for which the inhibition was inactive: -4.39%. `CN(Cc1cccnc1)C(=O)COc1ccc(Cl)c(Cl)c1.O=[N+]([O-])c1cc([N+](=O)[O-])c(O)c([N+](=O)[O-])c1`: the inhibition is inactive: -10.2%.

Take `O=[N+]([O-])c1cc([N+](=O)[O-])c(-c2cnn(-c3ccccc3)c2)c([N+](=O)[O-])c1`: the inhibition is inactive: -9.14%. Consider `Cc1nc2ccc3ccccc3c2s1.O=[N+]([O-])c1cc([N+](=O)[O-])c(O)c([N+](=O)[O-])c1`, for which the inhibition was inactive: -8%.

With `CCOC(=O)C(CC)C1=NC(C)(C)Cc2ccccc21.O=[N+]([O-])c1cc([N+](=O)[O-])c(O)c([N+](=O)[O-])c1` (centres undefined), the inhibition was inactive: 3.3%.

Regarding `O=[N+]([O-])c1cc([N+](=O)[O-])c(Nc2nnnn2CCO)c([N+](=O)[O-])c1`, the inhibition was inactive: 9.73%.

For `COc1ccccc1OP(C)(=O)Nc1c(C)cccc1C` (centres undefined), the inhibition is inactive: 9.09%. Turning to `CN1CCCCC1COC(=O)C1(O)c2ccccc2CCc2ccccc21` (centres undefined), the inhibition is inactive: 4.4%.

As for `CP(=O)(Nc1ccc(SC(F)(F)F)cc1)Oc1ccccc1` (centres undefined), the inhibition is inactive: 6.44%. Regarding `CCCOc1ccc(NP(C)(=O)Oc2ccc(Cl)cc2)cc1` (centres undefined), the inhibition was inactive: -1.77%. As for `COc1ccc(-c2ccccn2)cc1.O=[N+]([O-])c1cc([N+](=O)[O-])c(O)c([N+](=O)[O-])c1`, the inhibition is inactive: 2.36%.
